The source of these data is ChEMBL document CHEMBL3785084, “Rational modification of the lead molecule: Enhancement in the anticancer and dihydrofolate reductase inhibitory activity” (Bioorg Med Chem Lett, 2016).

The test deals with T1, Dihydrofolate reductase (Homo sapiens) (UniProt P00374).
T1 sequence (whole entry): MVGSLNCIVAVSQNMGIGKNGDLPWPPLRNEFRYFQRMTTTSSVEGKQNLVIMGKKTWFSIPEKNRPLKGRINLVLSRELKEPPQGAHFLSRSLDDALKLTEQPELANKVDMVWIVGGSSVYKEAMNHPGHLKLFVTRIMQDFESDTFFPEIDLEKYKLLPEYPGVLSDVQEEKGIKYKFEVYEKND

Molecules are shown by their SMILES.

Turning to `COc1cc(/C=C2\C(=O)Nc3ccccc32)cc(OC)c1O`, the Ka came out at 1.3 ×10⁷ /M.
